Measured values as given in article PMC9604483, “Crystal Structure of CYP3A4 Complexed with Fluorol Identifies the Substrate Access Channel as a High-Affinity Ligand Binding Site” (International Journal of Molecular Sciences, 2022).

The chains behind the UniProt entries cited, without tags or fusion partners. A line that says so, or that is headed by a name, gives the form on record, which may keep a tag or linker.
UniProt P08684, with tags, fused parts or gaps: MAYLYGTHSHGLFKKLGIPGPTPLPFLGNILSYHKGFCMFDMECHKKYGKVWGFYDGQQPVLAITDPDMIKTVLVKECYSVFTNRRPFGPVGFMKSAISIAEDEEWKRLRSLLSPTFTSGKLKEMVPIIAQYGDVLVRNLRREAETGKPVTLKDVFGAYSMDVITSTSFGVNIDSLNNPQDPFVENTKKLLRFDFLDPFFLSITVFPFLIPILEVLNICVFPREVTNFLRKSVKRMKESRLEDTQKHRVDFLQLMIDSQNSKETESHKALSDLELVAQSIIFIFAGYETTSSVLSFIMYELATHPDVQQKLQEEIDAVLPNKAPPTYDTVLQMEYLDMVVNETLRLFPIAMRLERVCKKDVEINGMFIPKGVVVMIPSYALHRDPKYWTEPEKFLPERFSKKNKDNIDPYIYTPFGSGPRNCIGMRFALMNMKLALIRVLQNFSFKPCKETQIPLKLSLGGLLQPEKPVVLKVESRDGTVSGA

Target: T1, WT CYP3A4 (Homo sapiens, UniProt P08684)
T1 construct: made in house
Assay: Equilibrium absorbance titrations of CYP3A4 with progesterone
Format: binding
Conditions: 2 μM WT CYP3A4

## CC(=O)[C@H]1CC[C@H]2[C@@H]3CCC4=CC(=O)CC[C@]4(C)[C@H]3CC[C@]12C [progesterone]
  Hill coefficient (nH): 1.56
